Reference: patent US11542293B2, “Sting modulator compounds, and methods of making and using” (Takeda Pharmaceutical Company Limited, priority 2017, dated 2023)
Where two headings read alike, the source gives them in different places.

System: THP1-Dual cells (ISG54 promoter Lucia luciferase reporter)
Assay: THP-1 Dual Lucia Reporter Gene Assay
Assay type: cell-based, human
Conditions: Lucia luciferase signal induction, 20 hours at 37° C., read-out: Cellular THP 1 EC50
Protocol: THP1-Dual™ cells (InvivoGen #thpd-nfis) were derived from the human THP-1 monocyte cell line by stable integration of the Lucia luciferase gene, a secreted luciferase reporter gene, under the control of an ISG54 (interferon-stimulated gene) minimal promoter in conjunction with five interferon (IFN)-stimulated response elements. […] The cell plates were dosed with 62.5 nL of the testing compounds, and then incubated at 37° C. for 20 hours. At the end of the incubation, 15 μL/well of the QUANTI-Luc™ (InvivoGen #rep-q1c1) were added, and luminescence was measured immediately using the LeadSeeker.
Compound concentration versus percent signal induction curves were fitted to generate EC50 values.

Row | SMILES | EC50 [µM] | EC50 (Homo sapiens, THP1-Dual, 20 h) [µM]
1 | Nc1nc2c(nnn2[C@@H]2O[C@@H]3COP(=O)(S)O[C@H]4C[C@H](Oc5ccncn5)C[C@@H]4COP(=O)(S)O[C@@H]2[C@@H]3O)c(=O)[nH]1 (stereo partly drawn) [Compound I-30b, 5-amino-3-[(2S,5R,7R,8R,10S,12aR,14R,15aS,16R)-16-hydroxy-2,10-dioxido-14-(pyrimidin-4-yloxy)-2,10-disulfanyldecahydro-5,8-methanocyclopenta[1][1,3,6,9,11,2,10]pentaoxadiphosphacyclotetradecin-7-yl]-3,6-dihydro-7H-[1,2,3]triazolo[4,5-d]pyrimidin-7-one] | < 1 | –
2 | CN(c1ncncn1)[C@@H]1C[C@@H]2COP(=O)(O)O[C@@H]3[C@H](O)[C@@H](COP(=O)(O)O[C@H]2C1)O[C@H]3n1cnc2c(=O)[nH]c(N)nc21 [Compound I-33, 2-amino-9-{(5R,7R,8R,12aR,14R,15aS,16R)-2,10,16-trihydroxy-14-[methyl(1,3,5-triazin-2-yl)amino]-2,10-dioxidodecahydro-5,8-methanocyclopenta[1][1,3,6,9,11,2,10]pentaoxadiphosphacyclotetradecin-7-yl}-1,9-dihydro-6H-purin-6-one] | – | > 25
3 | Nc1nc2c(ncn2[C@@H]2O[C@@H]3COP(=O)(S)O[C@@H]4[C@@H](COP(=O)(S)O[C@@H]2[C@@H]3O)C[C@@H](Nc2ccncn2)[C@H]4F)c(=O)[nH]1 (stereo partly drawn) [Compound I-35a, 2-amino-9-[(2S,5R,7R,8R,10S,12aR,14R,15R,15aR,16R)-15-fluoro-16-hydroxy-2,10-dioxido-14-(pyrimidin-4-ylamino)-2,10-disulfanyldecahydro-5,8-methanocyclopenta[1][1,3,6,9,11,2,10]pentaoxadiphosphacyclotetradecin-7-yl]-1,9-dihydro-6H-purin-6-one] | 10 to 25 | –
4 | Nc1nc2c(ncn2[C@@H]2O[C@@H]3COP(=O)(S)O[C@@H]4[C@@H](COP(=O)(S)O[C@@H]2[C@@H]3O)C[C@@H](Nc2ccncn2)[C@H]4F)c(=O)[nH]1 (stereo partly drawn) [Compound I-35b, 2-amino-9-[(2S,5R,7R,8R,10S,12aR,14R,15R,15aR,16R)-15-fluoro-16-hydroxy-2,10-dioxido-14-(pyrimidin-4-ylamino)-2,10-disulfanyldecahydro-5,8-methanocyclopenta[1][1,3,6,9,11,2,10]pentaoxadiphosphacyclotetradecin-7-yl]-1,9-dihydro-6H-purin-6-one] | 1 to 10 | –
5 | Nc1nc2c(ncn2[C@@H]2O[C@@H]3COP(=O)(O)O[C@H]4C[C@H](Nc5ncnc6ccnn56)C[C@@H]4COP(=O)(O)O[C@@H]2[C@@H]3O)c(=O)[nH]1 [Compound I-36, 2-amino-9-[(5R,7R,8R,12aR,14R,15aS,16R)-2,10,16-trihydroxy-2,10-dioxido-14-(pyrazolo[1,5-a][1,3,5]triazin-4-ylamino)decahydro-5,8-methanocyclopenta[1][1,3,6,9,11,2,10]pentaoxadiphosphacyclotetradecin-7-yl]-1,9-dihydro-6H-purin-6-one] | – | 10 to 25
